# Columns and labels:
# Protein sequences, listed by entry. Tags and fused reporters are not part of them. Lines headed by an entry give the natural chain unless they say otherwise; changes in a name come on top.
# UniProt P28845: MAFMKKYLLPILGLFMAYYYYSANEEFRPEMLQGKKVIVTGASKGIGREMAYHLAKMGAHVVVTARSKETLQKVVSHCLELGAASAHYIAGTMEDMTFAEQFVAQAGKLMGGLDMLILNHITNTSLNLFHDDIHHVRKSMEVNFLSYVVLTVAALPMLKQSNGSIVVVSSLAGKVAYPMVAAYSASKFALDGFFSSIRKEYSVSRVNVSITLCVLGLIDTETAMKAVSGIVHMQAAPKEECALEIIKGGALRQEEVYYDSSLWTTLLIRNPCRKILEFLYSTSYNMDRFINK
# UniProt P11712, whole entry: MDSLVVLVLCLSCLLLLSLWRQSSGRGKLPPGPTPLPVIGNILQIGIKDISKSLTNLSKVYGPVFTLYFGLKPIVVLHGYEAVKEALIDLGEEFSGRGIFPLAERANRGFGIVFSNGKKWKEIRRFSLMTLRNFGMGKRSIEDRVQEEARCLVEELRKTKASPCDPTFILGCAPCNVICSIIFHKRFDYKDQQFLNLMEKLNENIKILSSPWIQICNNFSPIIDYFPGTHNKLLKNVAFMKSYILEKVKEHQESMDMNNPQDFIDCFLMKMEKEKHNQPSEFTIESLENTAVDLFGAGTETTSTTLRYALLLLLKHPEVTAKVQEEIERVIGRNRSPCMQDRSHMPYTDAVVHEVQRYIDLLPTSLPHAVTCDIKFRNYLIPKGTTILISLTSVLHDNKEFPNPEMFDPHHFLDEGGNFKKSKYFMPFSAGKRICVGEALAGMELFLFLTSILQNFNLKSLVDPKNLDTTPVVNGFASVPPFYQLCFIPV
# 11β-HSD1 [1] = biological target: T1, 11β-HSD1 (Homo sapiens, UniProt P28845); assay: biochemical
# 11β-HSD1 [2] = biological target: T1, 11β-HSD1; assay: Biological Test Example 4: microsomal 11β-HSD1 in the presence of 50% human plasma
# CYP2C9 = CYP2C9 (Homo sapiens, UniProt P11712); assay: biochemical
IC50 (CYP2C9) [nM],Compound,IC50 (11β-HSD1 [1]; Biological Test Example 1 IC50 (nM)) [nM],"IC50 (11β-HSD1 [1]; IC50 Range, Biological Test Example 1) [nM]",IC50 (11β-HSD1 [2]) [nM],Shift (11β-HSD1 [2]; IC50 in Test Example 4 divided by IC50 in Test Example 1)
–,"C[C@@H](c1ccc(-c2cccnc2)cc1)N1CC[C@](CCNS(C)(=O)=O)(c2ccccc2)OC1=O [EXAMPLE 55, N-(2-((S)-2-oxo-6-phenyl-3-((S)-1-(4-(pyridin-3-yl)phenyl)ethyl)-1,3-oxazinan-6-yl)ethyl)methanesulfonamide]",1.5,< 100,8.3,5.6
14300,"C[C@@H](c1ccc(-c2cccnc2)cc1)N1CC[C@](CCCO)(c2ccc(F)cc2)OC1=O [EXAMPLE 197, (R)-6-(4-fluorophenyl)-6-(3-hydroxypropyl)-3-((S)-1-(4-(pyridin-3-yl)phenyl)ethyl)-1,3-oxazinan-2-one]",–,–,–,–
